From PubChem BioAssay AID540252 (Sanford-Burnham Center for Chemical Genomics, 2011)

Biological target: glucose-6-phosphate dehydrogenase-6-phosphogluconolactonase (Plasmodium falciparum 3D7)
Test: PfG6PD enzyme inhibitors, direct NADPH readout, dose response, orthogonal assay, biochemical, end-point NADPH detection (AID 540252)
Details: purified PfG6PD enzyme

CNc1nc(-c2ccccc2)[n+](-c2ccc(C)cc2)s1
IC50: 8.68 µM
